Measured values published in US20240167922A1, “TRANSPARENTIZING REAGENT AND TRANSPARENTIZING METHOD” (KYOTO UNIVERSITY, priority 2021, published 2024).

Conditions: 4M sodium salicylate, at room temperature

Work on `O=C([O-])c1ccccc1O.[Na+]` [sodium salicylate] yielded an RI of 1.455.
